Target: rHc-HRG-2 (recombinant Hc-HRG-2) (Haemonchus contortus, UniProt A0A7I5E8W1)
Assay: biochemical

Amino acid sequences for entries named in this document (tags omitted).
UniProt A0A7I5E8W1, entry or part of it: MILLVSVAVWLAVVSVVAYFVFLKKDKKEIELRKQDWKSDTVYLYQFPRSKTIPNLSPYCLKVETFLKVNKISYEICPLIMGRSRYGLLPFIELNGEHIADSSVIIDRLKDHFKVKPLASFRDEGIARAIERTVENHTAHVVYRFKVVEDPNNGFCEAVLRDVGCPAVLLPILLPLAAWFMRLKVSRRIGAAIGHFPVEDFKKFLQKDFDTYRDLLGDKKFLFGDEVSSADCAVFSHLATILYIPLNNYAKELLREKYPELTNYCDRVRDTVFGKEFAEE

With `C=CC1=C(C)C2=Cc3c(C=C)c(C)c4[n]3[Fe]([Cl])[n]3c(c(C)c(CCC(=O)O)c3=CC3=NC(=C4)C(C)=C3CCC(=O)O)=CC1=N2` [heme] the Kd was 7.54 ± 0.602 µM.
